# In ChEMBL document CHEMBL5108053 (J Med Chem, 2022):
# Assay: in vivo
# Settings: rat, po
smiles,measurement,value
OC[C@H]1O[C@@H](S[C@@H]2O[C@H](CO)[C@H](O)[C@H](n3cc(-c4cccc(F)c4)nn3)[C@H]2O)[C@H](O)[C@@H](n2cc(-c3cccc(F)c3)nn2)[C@H]1O [OLITIGALTIN],bioavailability,< 1%
